Source: PubChem BioAssay AID493098 (Sanford-Burnham Center for Chemical Genomics, 2011)
This is a selection; strong and weak results do not stand in their true shares. Activity calls are given as the source filed them.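 How the source made its calls: active means compounds whose inhibition of the agonist-driven luminescence signal at 20 µM reaches about 50% (limit read from the data); inactive means the rest.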

Protein sequences, listed by entry. Tags and fused reporters are not part of them. Lines headed by an entry give the natural chain unless they say otherwise; changes in a name come on top.
UniProt P51684: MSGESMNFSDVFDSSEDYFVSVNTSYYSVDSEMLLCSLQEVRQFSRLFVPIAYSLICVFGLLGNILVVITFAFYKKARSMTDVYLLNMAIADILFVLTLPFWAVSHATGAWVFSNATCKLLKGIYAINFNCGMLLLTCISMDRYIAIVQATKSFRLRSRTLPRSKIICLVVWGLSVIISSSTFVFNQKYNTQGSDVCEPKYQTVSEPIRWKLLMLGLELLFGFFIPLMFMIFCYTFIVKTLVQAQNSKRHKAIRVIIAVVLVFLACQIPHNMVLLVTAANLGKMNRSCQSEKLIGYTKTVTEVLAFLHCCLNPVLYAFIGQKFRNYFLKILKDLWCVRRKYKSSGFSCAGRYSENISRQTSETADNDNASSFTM

Biological target: C-C chemokine receptor type 6 (Homo sapiens) (UniProt P51684)
Assay: blockers of CCL20-driven beta-arrestin recruitment to CCR6 – cell-based, CHO-K1, luminescence, uHTS, primary screen (AID 493098);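 further: cells stimulated with CCL20 at 14 nM final; plate controls were DMSO with CCL20 for no effect and DMSO without agonist for full effect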
Details: CHO-K1 CCR6 PathHunter beta-arrestin, CCL20-stimulated, at 20 µM, hits give high values

Row | Compound | inhibition
1 | CC(=O)c1ccc(N2CC2c2ccncc2)cc1 (centres undefined) | inactive: -5.6%
2 | c1nnnn1CCn1cnnn1 | inactive: 2.88%
3 | CC(C)C(=O)NC(Sc1ccccc1)C(Cl)(Cl)Cl (centres undefined) | inactive: 12.5%
4 | O=P(Nc1nccs1)(c1ccccc1)c1ccccc1 | inactive: 17.5%
5 | C[C@H]1OP(=O)(Oc2ccccc2)[C@H](O)[C@H](O)[C@H]1N=[N+]=[N-] (some centres undefined) | inactive: -0.9%
6 | O=P(Nc1nc2ccccc2s1)(c1ccccc1)c1ccccc1 | inactive: 2.34%
7 | O=P(Nc1ccccn1)(c1ccc(Br)cc1)c1ccc(Br)cc1 | inactive: 9.22%
8 | CN(C)C1(CNC(=O)c2ccc(Cl)c(S(N)(=O)=O)c2)CCCCC1 | inactive: 7.1%
9 | COc1ccc(N)c([N+](=O)[O-])c1[N+](=O)[O-] | inactive: 27.3%
10 | O=C(OC1CN2CCC1CC2)c1cccc(Cl)c1 (centres undefined) | inactive: 9.05%
11 | Nc1ccc([As](=O)(O)c2ccc([N+](=O)[O-])cc2)cc1 | inactive: -3.85%
12 | C(Cc1nn[nH]n1)Cc1nn[nH]n1 | inactive: 6.73%
13 | O=[As](O)(c1ccccc1)c1ccc(O)cc1 | inactive: -0.9%
14 | O=[N+]([O-])c1ccc(O)c(/C=N/Nc2ccc([N+](=O)[O-])cc2[N+](=O)[O-])c1 | active: 52.1%
15 | O=[N+]([O-])c1ncn(CCn2cnc([N+](=O)[O-])n2)n1 | inactive: -5.8%
16 | CC(=O)NC(SC(=S)N(C)C)C(Cl)(Cl)Cl (centres undefined) | inactive: 19.1%
17 | CN(C)C1(CNC(=O)c2ccc(S(C)(=O)=O)cc2)CCCCC1 | inactive: 4.75%
18 | CCCC1OP(=O)(Nc2ccccc2)OCC1CC (centres undefined) | inactive: 14.5%
19 | O=C(/C=C/c1ccccc1)OC1CN2CCC1CC2 (centres undefined) | inactive: 11.6%
20 | CC1CCC(C(C)C)C(OP(=O)(Nc2ccccn2)c2ccccc2)C1 (centres undefined) | inactive: 13%
21 | Cc1ccc(C(=O)OC2CN3CCC2CC3)cc1 (centres undefined) | inactive: 2.39%
22 | Cc1nn(-c2ccccc2)c2c1P(=O)(N1CCOCC1)N(C)C(c1ccccc1)=N2 (centres undefined) | inactive: -3.75%
23 | Nc1cccc([As](=O)(O)c2ccccc2)c1 | inactive: -2.8%
24 | O=P1(Nc2ccc(Br)cn2)COc2ccccc2OC1 | inactive: -4.36%
25 | NS(=O)(=O)c1cccc(NC(=O)COC(=O)C(O)(c2ccccc2)c2ccccc2)c1 | inactive: 12.5%

Row | Compound | inhibition
26 | O=[As](O)(c1cccs1)c1cccs1 | inactive: 11.3%
27 | Cc1ccc(OCC(=O)OC2CN3CCC2CC3)cc1 (centres undefined) | inactive: 5.13%
28 | O=P1(Nc2ncccn2)COc2ccccc2OC1 | inactive: -4.74%
29 | CC(C)(C)C(=O)NC(Sc1ncccn1)C(Cl)(Cl)Cl (centres undefined) | inactive: 4.13%
30 | Clc1n[nH]nc1-c1nn[nH][15n]1 | inactive: -20.4%
31 | CCOP(=O)(NC(=NC(C)c1ccccc1)NC(C)c1ccccc1)OCC (centres undefined) | inactive: 6.77%
32 | O=P1(Nc2ccccn2)COc2ccccc2OC1 | inactive: -3.27%
33 | CCC1=CC2Cc3nc4ccc(Cl)cc4c(N)c3C(C1)C2 (centres undefined) | inactive: 47%
34 | CN(CCCl)Cc1cc(Cl)c(NC2=NCCN2)c(Cl)c1 | inactive: 3.82%
35 | CCOP(=O)(Nc1ccc(C)cn1)OCC | inactive: -10.8%
36 | CC(C)/C=N\N=C(\N)N[N+](=O)[O-] | inactive: 18.4%
37 | CN(C(=O)Cc1ccc(Cl)c(Cl)c1)[C@@H]1CCCC[C@H]1N1CCCC1 | inactive: 2.73%
38 | CC1(CBr)Cn2c(nc3ccccc3c2=O)S1 (centres undefined) | inactive: -15.4%
39 | COc1ccccc1CNC(=O)COC(=O)C(O)(c1ccccc1)c1ccccc1 | inactive: 9.21%
40 | O=[As](O)(c1cccc(O)c1)c1cccc(O)c1 | inactive: -5.27%
41 | Cc1cccc(OCC(=O)OC2CN3CCC2CC3)c1 (centres undefined) | inactive: -5.67%
42 | O=C(OC1CN2CCC1CC2)c1ccc(Cl)cc1 (centres undefined) | inactive: 4.18%
43 | CS(=O)(=O)c1ccc(Cl)c(NC(=O)COC(=O)C(O)(c2ccccc2)c2ccccc2)c1 | inactive: 9.7%
44 | COc1cc(C(=O)NCC2(N3CCOCC3)CCCCC2)cc(Cl)c1OC(C)C | inactive: 5.34%
45 | O=[As](O)(O)c1cccnc1 | inactive: 10%
46 | CCOP(=O)(Nc1cccc2ccccc12)OCC | inactive: -7.52%
47 | COc1cc(C2NCCC3(OCCO3)C2(C)C)cc(OC)c1OC (centres undefined) | inactive: 13.5%
48 | Nc1cccc2c([As](=O)(O)O)cccc12 | inactive: -17.6%
49 | Cc1ccc(NCCc2c([N+](=O)[O-])cc([N+](=O)[O-])cc2[N+](=O)[O-])cc1 | inactive: 30.2%
50 | CCCOP(=S)(Nc1nc(N)cc(=O)[nH]1)OCCC | inactive: 2.23%

Row | Compound | inhibition
51 | Nc1ccccc1[As](=O)(O)c1ccccc1 | inactive: -0.22%
52 | O=C(O)COc1ccc([As](=O)(O)O)cc1[N+](=O)[O-] | inactive: 10.2%
53 | O=P(Nc1nccs1)(c1ccccc1)c1nc2ccccc2s1 (centres undefined) | inactive: -15.9%
54 | O=P(Nc1nccs1)(Oc1ccccc1)Oc1ccccc1 | inactive: 5.3%
55 | CCOP1(=S)c2c(C)nn(CCC#N)c2N=C(c2ccccc2F)N1C (centres undefined) | inactive: 10.4%
56 | CS(=O)(=O)c1cc([N+](=O)[O-])c2no[n+]([O-])c2c1 | inactive: 14.6%
57 | CN(C(=O)Cc1ccccc1)[C@@H]1CC[C@]2(CCCO2)C[C@H]1N1CCCC1 | inactive: 12.3%
58 | CCOP1(=S)c2c(C)nn(CCC#N)c2N=C(c2ccc(F)cc2)N1C (centres undefined) | inactive: 17.1%
59 | N#CCCN(C(=O)COC(=O)C(O)(c1ccccc1)c1ccccc1)c1ccc(F)cc1 | inactive: -0.36%
60 | CN(C(=O)Cc1ccc(Cl)c(Cl)c1)[C@H]1CC[C@@]2(CCCO2)C[C@@H]1N1CCCC1 | inactive: 7%
61 | CN(C)C(=O)c1cc([N+](=O)[O-])cc2c1-c1c(cc([N+](=O)[O-])cc1[N+](=O)[O-])C2=O | inactive: 41.7%
62 | O=[N+]([O-])c1ccc2c(c1)nnn2O | inactive: -3.86%
63 | NC(=O)Nc1ccc([As](=O)(O)O)cc1 | inactive: -4.84%
64 | Cc1ccc(OP(=O)(Nc2ccc([N+](=O)[O-])cn2)Oc2ccc(C)cc2)cc1 | inactive: 22.4%
65 | Cc1ccc2nc3c(c(C)c2c1)CC(C(Cl)Cl)S3 (centres undefined) | inactive: 10.6%
66 | COc1cc(C(=O)NCC2(N3CCOCC3)CCCCC2)ccc1OCC(C)C | inactive: 13.2%
67 | O=[N+]([O-])c1ccc(-c2cc([N+](=O)[O-])c(O)c([N+](=O)[O-])c2)cc1 | inactive: 30.5%
68 | C[As](=O)(O)c1cccc(C(=O)O)c1 | inactive: -3.83%
69 | O=[As](O)(c1ccc(O)cc1)c1ccccc1O | inactive: -9.73%
70 | O=[N+]([O-])c1cc([N+](=O)[O-])c(-c2ccn[nH]2)s1 | inactive: -1.35%
71 | O=C(OC1CN2CCC1CC2)c1cccc2[nH]cnc12 (centres undefined) | inactive: 6.97%
72 | CCN(CC)C(=S)SC(NC=O)C(Cl)(Cl)Cl (centres undefined) | inactive: 37%
73 | CC(C)NC(=O)NP(=O)(Oc1ccccc1)Oc1ccccc1 | inactive: 10%
74 | ClCCSc1nnc(-c2cccnc2)o1 | inactive: 4.87%
75 | CC(C)c1ccc(OP(=O)(Nc2ccccn2)Oc2ccccc2F)cc1 (centres undefined) | inactive: 0.98%

Row | Compound | inhibition
76 | COC(=O)C1(C)COP(=O)(N2CCCCCC2)OC1 (centres undefined) | inactive: 3.67%
77 | O=P1(N(CCCl)CCCl)Nc2ccccc2N1 | inactive: 8.39%
78 | O=P1(N(CCCl)CCCl)OCCCN1CCCl (centres undefined) | inactive: 4.26%
79 | COc1cc(I)ccc1[As](=O)(O)O | inactive: 7.8%
80 | COc1ccc2nc(NP(=O)(c3ccccc3)c3ccccc3)sc2c1 | inactive: 15.4%
81 | Cc1c2c(nc3ccccc13)SC(C(Cl)Cl)C2 (centres undefined) | inactive: -14.1%
82 | Cc1cc(=O)[nH]c(N[N+](=O)[O-])n1 | inactive: 16.4%
83 | O=C(OC1CN2CCC1CC2)C12CC3CC(CC(C3)C1)C2 (centres undefined) | inactive: 1.2%
84 | O=[N+]([O-])c1cc(Oc2ccc([N+](=O)[O-])cc2C(F)(F)F)cc([N+](=O)[O-])c1 | inactive: 6.09%
85 | COc1ccc(N/C(=N/P(=O)(N2CCOCC2)N2CCOCC2)N2CCOCC2)cc1 | inactive: -4.85%
86 | O=C(Nc1ccncc1[N+](=O)[O-])c1ccc([N+](=O)[O-])cc1[N+](=O)[O-] | inactive: -5.73%
87 | O=C(COc1ccccc1)OC1CN2CCC1CC2 (centres undefined) | inactive: -5.41%
88 | COP1(=S)c2c(C)nn(CCC#N)c2N=C(c2ccc(F)cc2)N1C (centres undefined) | inactive: -11.7%
89 | CCC(C)N(CC(C)C)C(=S)SC(NC(C)=O)C(Cl)(Cl)Cl (centres undefined) | inactive: 30.5%
90 | O=C(OC1CN2CCC1CC2)c1cccc([N+](=O)[O-])c1 (centres undefined) | inactive: 2.6%
91 | CCOC(=O)c1ccc(NC(=O)C(C)(CCl)SC)cc1 (centres undefined) | inactive: 2.54%
92 | Cc1cc(SC(NC(=O)c2ccccc2)C(Cl)(Cl)Cl)nc(C(C)C)n1 (centres undefined) | inactive: 16.4%
93 | CCCCOc1ccc(C(=O)NCC2(N3CCCCC3)CCCCC2)cc1OC | inactive: 3.88%
94 | CCOC(=O)Nc1ccc([As](=O)(O)O)c(O)c1 | inactive: 7.95%
95 | CC1CCNP(=O)(N(CCCl)CCCl)O1 (centres undefined) | inactive: -0.49%
96 | O=P(Nc1ccccn1)(c1cccc2ccccc12)c1cccc2ccccc12 | inactive: 17.6%
97 | Cc1cc(SC(NC=O)C(Cl)(Cl)Cl)ncn1 (centres undefined) | inactive: 9.25%
98 | O=[N+]([O-])c1ccc(Nc2ccc(Oc3ccc([N+](=O)[O-])cc3[N+](=O)[O-])cc2)c([N+](=O)[O-])c1 | inactive: -0.57%
99 | CCOC(=O)Nc1cccc([As](=O)(O)O)c1 | inactive: 8.34%
